The data set can be described thus: Protective index, ratio of TD50 for CF1 albino mouse neurotoxicity to ED50 for protection against 6 Hz electroshock-induced seizure in CF1 albino mouse. Format: toxicity, organism-based. Particulars: in vivo, read-out: Ratio TD50/ED50.

As for `NC(=O)N1c2ccccc2C=Cc2ccccc21` [CARBAMAZEPINE], the selectivity ratio was 0.95.

The values are drawn from ChEMBL document CHEMBL3352818, “Seizure prevention by the naturally occurring phenols, carvacrol and thymol in a partial seizure-psychomotor model” (Bioorg Med Chem Lett, 2014).
